Our source for the Kd values is patent publication US7736909B2, “Methods and compositions comprising capture agents” (Board of Regents, the University of Texas System, priority 2003, dated 2010).

Each structure is given as a SMILES string. A value given as a limit tells only on which side of the number the result lay.

This assay concerns the target MBP-Mdm2 (UniProt P0AEX9+Q00987). The assay can be described thus: isothermal titration calorimetry (ITC). The assay is classed as binding, human. The following applies: read-out: KD of chalcone/MBP-Mdm2 complex under inventors' conditions; inferred; not determinable by ITC. A general note: In ITC the heat of successive injections is recorded.

Consider `O=C(O)COc1ccc(/C=C/C(=O)c2ccc(Cl)cc2)cc1`, for which the Kd is no less than 220 µM.
